Measurements as given in PubChem BioAssay AID1053172 (The Scripps Research Institute Molecular Screening Center, 2014).

Biological target: HIV-1 integrase / human LEDGF/p75 complex
Experiment: blockers of LEDGF/p75-dependent integrase activity – biochemical, TR-FRET, dose response (AID 1053172)
Details: TR-FRET integrase-LEDGF/p75 DNA integration

IC50: 804 nM
SMILES: Oc1ccc(/C=N/NC(=S)Nc2cccnc2)c(O)c1O
